Measurements published in BindingDB's records for doi:10.1021/jm800182c (University of Tennessee Health Science Center, 2008).

Molecular target: T1, Calpain-1 catalytic subunit (Sus scrofa, UniProt P35750)
T1 sequence (P35750 whole entry): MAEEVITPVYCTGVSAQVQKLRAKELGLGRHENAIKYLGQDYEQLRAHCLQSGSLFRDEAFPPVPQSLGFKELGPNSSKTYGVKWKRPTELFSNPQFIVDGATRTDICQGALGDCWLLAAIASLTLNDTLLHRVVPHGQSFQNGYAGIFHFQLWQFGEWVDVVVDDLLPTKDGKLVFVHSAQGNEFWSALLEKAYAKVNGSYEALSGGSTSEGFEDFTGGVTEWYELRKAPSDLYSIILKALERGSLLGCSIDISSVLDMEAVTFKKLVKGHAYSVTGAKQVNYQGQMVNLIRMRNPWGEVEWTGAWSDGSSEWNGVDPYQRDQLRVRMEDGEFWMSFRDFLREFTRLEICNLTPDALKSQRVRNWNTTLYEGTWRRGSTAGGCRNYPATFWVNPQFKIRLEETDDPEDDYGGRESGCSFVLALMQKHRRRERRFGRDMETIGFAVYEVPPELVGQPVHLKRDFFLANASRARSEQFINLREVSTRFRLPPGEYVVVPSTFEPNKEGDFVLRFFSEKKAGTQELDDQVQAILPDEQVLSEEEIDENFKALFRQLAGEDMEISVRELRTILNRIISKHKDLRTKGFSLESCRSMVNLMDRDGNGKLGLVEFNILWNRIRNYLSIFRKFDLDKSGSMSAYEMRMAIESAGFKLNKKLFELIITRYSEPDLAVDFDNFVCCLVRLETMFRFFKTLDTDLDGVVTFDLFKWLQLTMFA
Experiment: mu-Calpain Inhibition Assay
Conditions: pH 7.4; 22 °C
Description: Assays were initiated by addition of CaCl2, and the increase in fluorescence (ex @370 nm, em @440 nm) was monitored. MDL28170 and buffer with 2% DMSO were used as controls. Ki values were determined according to Dixon methods.

Ki: 2.15 µM
SMILES: COC(=O)C(=O)C(Cc1ccccc1)NC(=O)[C@H](CC(C)C)NC(=O)CC(c1ccccc1)c1ccccc1 (stereo partly drawn) [methyl 3-[(2S)-2-(3,3-diphenylpropanamido)-4-methylpentanamido]-2-oxo-4-phenylbutanoate]
